Laboratory results: PubChem BioAssay AID1434 (Sanford-Burnham Center for Chemical Genomics, 2008)
Only a part is listed here, and it is no random draw. Some structures show a salt or complex split into parts, the way the source records it. The source made the active and inactive calls.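 The calls were made as follows: active = mean inhibition across duplicate retests at 20 µM reaching about 50% (limit read from the data); inactive = the rest, inconclusive results apart.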

Protein sequences, listed by entry. Tags and fused reporters are not part of them.
UniProt Q01196, whole entry, looked up: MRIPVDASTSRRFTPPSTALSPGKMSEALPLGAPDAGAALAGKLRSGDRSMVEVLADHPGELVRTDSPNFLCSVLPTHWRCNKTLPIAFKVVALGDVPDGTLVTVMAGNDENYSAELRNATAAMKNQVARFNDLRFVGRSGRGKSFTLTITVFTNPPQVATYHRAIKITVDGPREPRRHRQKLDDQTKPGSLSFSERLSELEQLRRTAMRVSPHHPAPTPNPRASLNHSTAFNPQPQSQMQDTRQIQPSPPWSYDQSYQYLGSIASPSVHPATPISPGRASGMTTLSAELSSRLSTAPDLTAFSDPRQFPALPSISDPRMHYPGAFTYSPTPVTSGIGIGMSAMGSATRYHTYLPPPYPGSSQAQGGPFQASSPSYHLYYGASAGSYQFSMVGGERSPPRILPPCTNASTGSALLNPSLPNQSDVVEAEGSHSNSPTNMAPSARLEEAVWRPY
UniProt Q13951, whole entry, looked up: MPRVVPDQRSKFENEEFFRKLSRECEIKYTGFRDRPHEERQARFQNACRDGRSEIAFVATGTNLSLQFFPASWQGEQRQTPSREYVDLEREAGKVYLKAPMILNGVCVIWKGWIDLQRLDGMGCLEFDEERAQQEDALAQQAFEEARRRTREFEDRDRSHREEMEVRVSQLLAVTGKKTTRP

target: Runt-related transcription factor 1 (Homo sapiens) + Core-binding factor subunit beta (Homo sapiens) (UniProt Q01196+Q13951); assay: disruptors of Runt domain/CBFb-SMMHC interaction – biochemical, FRET, Cerulean-Runt, Venus-CBFb-SMMHC, uHTS, primary screen (AID 1434); conditions: Cerulean-Runt/Venus-CBFb-SMMHC FRET ratio 530/480, 1 h; at 20 µM; hits give high values;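 also: 0% = DMSO wells and 100% = wells with excess untagged CBFb-SMMHC; inhibitors lower the FRET ratio by blocking Runt binding to CBFb-SMMHC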

Structure (SMILES) | inhibition
O=C(OCCN1CCN(CCOCc2ccccc2)CC1)C(O)(c1ccccc1)c1ccccc1 | inactive: 5.4%
COc1ccc2c(c1O)-c1c(O)c(OC)cc3c1[C@H](C2)[N+](C)(C)CC3.O=[N+]([O-])c1cc([N+](=O)[O-])c([O-])c([N+](=O)[O-])c1[O-] | inactive: 0.9%
CCOC(=O)c1ccc(NP(C)(=O)Oc2ccc(F)cc2)cc1 (stereo not given) | inactive: 1.6%
COc1ccc(OP(C)(=O)Nc2ccc(SC(F)(F)F)cc2)cc1 (stereo not given) | inactive: -4.1%
CCN(CC)CCCOC(=O)C(O)(c1ccccc1)C1CCCCC1 (stereo not given) | inactive: -1.5%
CP(=O)(Nc1ccccc1)Oc1ccc(F)cc1 (stereo not given) | inactive: -3.5%
CCCCCOc1ccc(NP(C)(=O)Oc2ccc(Cl)cc2Cl)cc1 (stereo not given) | inactive: -8.7%
COc1ccc(OP(C)(=O)Nc2cccc(Br)c2)cc1 (stereo not given) | inactive: 1.9%
CN(C)CCOC(=O)C(O)(c1ccccc1)C1CCCCC1 (stereo not given) | inactive: -1.7%
COc1ccc(NP(C)(=O)Oc2ccccc2OC)cc1 (stereo not given) | inactive: 0.1%
O=[N+]([O-])c1ccc(OP2(=O)COCCO2)cc1 (stereo not given) | inactive: 0.5%
O=[N+]([O-])c1cc([N+](=O)[O-])c(NCC2CCS(=O)(=O)C2)c([N+](=O)[O-])c1 (stereo not given) | inactive: 1.4%
Cc1cc(-c2cccc3ccccc23)c(C)cn1.O=[N+]([O-])c1cc([N+](=O)[O-])c(O)c([N+](=O)[O-])c1 | inactive: -0.2%
CP(=O)(Nc1ccc(SC(F)(F)F)cc1)Oc1ccc(F)cc1 (stereo not given) | inactive: 2.8%
CCOP(C)(=S)SCC(=O)NC(C)(CC)C(=O)O (stereo not given) | inactive: -3.9%
CP(=O)(Nc1ccc2c(c1)OCCO2)Oc1ccccc1 (stereo not given) | inactive: 5.4%
Cc1ccccc1NP(C)(=O)Nc1ccccc1C | inactive: 0.3%
O=[N+]([O-])c1cc([N+](=O)[O-])c(-n2nnc3ccccc32)c([N+](=O)[O-])c1 | inactive: -0.7%
Cc1nc2ccc3ccccc3c2s1.O=[N+]([O-])c1cc([N+](=O)[O-])c(O)c([N+](=O)[O-])c1 | inactive: -13.7%
CCOC(=O)C(CC)C1=NC(C)(C)Cc2ccccc21.O=[N+]([O-])c1cc([N+](=O)[O-])c(O)c([N+](=O)[O-])c1 (stereo not given) | inactive: 0.7%
O=[N+]([O-])c1cc([N+](=O)[O-])c(Nc2nnnn2CCO)c([N+](=O)[O-])c1 | inactive: -5.1%
COc1ccccc1OP(C)(=O)Nc1c(C)cccc1C (stereo not given) | inactive: -5.9%
CN1CCCCC1COC(=O)C1(O)c2ccccc2CCc2ccccc21 (stereo not given) | inactive: 2.4%
CCCOc1ccc(NP(C)(=O)Oc2ccc(Cl)cc2)cc1 (stereo not given) | inactive: -0.3%
CP(=O)(Nc1ccc(SC(F)(F)F)cc1)Oc1ccccc1 (stereo not given) | inactive: -2%
O=C(O)c1cccc(Nc2c([N+](=O)[O-])cc([N+](=O)[O-])cc2[N+](=O)[O-])c1 | inactive: -6.1%
CC1=NCCc2c1[nH]c1ccccc21.O=[N+]([O-])c1cc([N+](=O)[O-])c(O)c([N+](=O)[O-])c1 | inactive: -14.6%
COc1ccccc1OP(C)(=O)Nc1cccc(Br)c1 (stereo not given) | inactive: -0.7%

Structure (SMILES) | inhibition
CCOC(=O)c1ccc(NP(C)(=O)Oc2cc(C)cc(C)c2)cc1 (stereo not given) | inactive: -0.6%
Cc1cc(C)cc(OP(C)(=O)Nc2ccc(C)cc2C)c1 (stereo not given) | inactive: -0.6%
Cc1ccc(C)c(NP(C)(=O)Oc2ccccc2)c1 (stereo not given) | inactive: -2.4%
Cc1cc(C)cc(OP(C)(=O)Nc2ccccn2)c1 (stereo not given) | inactive: -0.2%
CP(=O)(Nc1cccc(Br)c1)Oc1ccccc1 (stereo not given) | inactive: 0.9%
CCN(CC)CCCOC(=O)C(O)(c1ccccc1)c1ccccc1 | inactive: -0.3%
O=[N+]([O-])c1ccc2c(c1)C=Nc1ccccc1O2 | inactive: -3.1%
Cc1cccc(C)c1OP(C)(N)=O (stereo not given) | inactive: -1%
CC(C)(C)c1ccc(OP(C)(=O)Nc2ccc(SC(F)(F)F)cc2)cc1 (stereo not given) | inactive: -6.2%
Cc1ccc(NP(C)(=O)Oc2ccccc2)c(C)c1 (stereo not given) | inactive: -1.6%
COc1ccccc1OP(C)(=O)Nc1ccc(C)cc1 (stereo not given) | inactive: 0.2%
CCOC(=O)c1ccc(NP(C)(=O)Oc2ccccc2)cc1 (stereo not given) | inactive: -3.2%
Cc1cc(C)cc(OP(C)(N)=O)c1 (stereo not given) | inactive: 2%
COc1ccc(OP(C)(=O)Nc2cccc(F)c2)cc1 (stereo not given) | inactive: -0.3%
COc1ccccc1OP(C)(=O)Nc1cc(Cl)ccc1C (stereo not given) | inactive: -3.6%
CP(=S)(Nn1cnnc1)Oc1ccccc1 (stereo not given) | inactive: -2.3%
CP(=O)(Nc1ccccc1Br)Oc1ccccc1 (stereo not given) | inactive: 1.2%
COc1ccccc1OP(C)(=O)Nc1ccccc1 (stereo not given) | inactive: 2%
CP(=O)(Oc1ccccc1)OC(c1ccccc1)C(F)(F)F (stereo not given) | inactive: -3%
Cc1cccc(C)c1OP(C)(=O)Nc1ccc(SC(F)(F)F)cc1 (stereo not given) | inactive: -2.2%
CP(=O)(Nc1ccc(SC(F)(F)F)cc1)Oc1ccc(Cl)cc1 (stereo not given) | inactive: -2.5%
Cc1cc(C)cc(OP(C)(=O)Nc2ccc(SC(F)(F)F)cc2)c1 (stereo not given) | inactive: -6.1%
CP(=O)(NC(=O)Nc1ccccc1)Oc1ccccc1 (stereo not given) | inactive: 0%
CCc1ccc(OP(C)(=O)N2CCN(c3ccc([N+](=O)[O-])cc3)CC2)cc1 (stereo not given) | inactive: -4.4%
CCOC(=O)c1ccc(NP(C)(=O)Oc2ccc(OC)cc2)cc1 (stereo not given) | inactive: -1.1%
CCOP(C)(=S)SCC(=O)NC(C)C(=O)O (stereo not given) | inactive: 0.9%
CP(=O)(Nc1ccccn1)Oc1ccc(Cl)cc1 (stereo not given) | inactive: 2.2%
